# scFv variants of Ab-14 (heavy chain) against a SARS-CoV-2 spike peptide

All variants were tested on one target, the spike HR2 peptide PDVDLGDISGINAS (SARS-CoV-2).

The variants keep the light chain, the linker and the frameworks of Ab-14 (scFv order VH, a (GGGGS)3 linker, VL).
VH: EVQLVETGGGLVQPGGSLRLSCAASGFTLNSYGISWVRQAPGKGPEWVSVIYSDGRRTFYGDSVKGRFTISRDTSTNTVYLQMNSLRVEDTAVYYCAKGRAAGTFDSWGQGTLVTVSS
VL: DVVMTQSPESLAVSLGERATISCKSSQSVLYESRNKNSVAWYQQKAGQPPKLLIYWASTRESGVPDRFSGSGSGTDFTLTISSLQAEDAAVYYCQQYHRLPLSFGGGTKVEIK

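The parent was found by panning a naive human phage display library on the peptide. This is the validation round: designs drawn from the data on random variants, tested in the same kind of assay. Group labels follow the data file (En: ensemble of fine-tuned language models; HC: hill climbing; Gen: genetic algorithm; Gibbs: Gibbs sampling; a sequence that several methods proposed may carry one label only). The assay is AlphaSeq: two haploid yeast populations carry antibody and antigen on their surface. Mating (16 h, 30 °C) was followed by selection of diploids and sequencing of their barcodes. A regression on co-assayed BCL2-family reference pairs converts the normalised counts of each replicate to an apparent Kd. Each pool was mated in six replicate cultures.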

The whole VH of each variant is written out. Variants here have more than six changes. Scale: log10 of Kd in nM, estimated from mating counts; low values are strong binders. Replicates are averaged; those with no signal do not enter the mean. "no signal" marks a missing value. The strain was present, yet no cells mated with the target were sequenced in any replicate, which points to weak or no binding. Background: pairings of all heavy chain designs with three empty control strains gave a value in 1% of cases (median 2.08, 5th percentile 0.84). Values in that range, when seen in few replicates, are hard to tell from nonspecific mating. For each scFv, signals with the empty controls are counted beside the result. The authors' rule: three or more of the six replicates give a measured affinity, fewer mean a poor binder. Values of this round are not directly comparable with the first-round values of the same sequences.

Variant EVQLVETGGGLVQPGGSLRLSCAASGFDLDEYGISWVRQAPGKGPEWVSVIYADGSRTAYSDSVKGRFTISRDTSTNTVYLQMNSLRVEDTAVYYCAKGENAGTFDVWGQGTLVTVSS [En_Gen] gave 0.54 (6 of 6 replicates; controls 0 of 18). Variant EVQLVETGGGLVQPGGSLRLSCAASGFNLDEYGISWVRQAPGKGPEWVSVIYADGARTAYADKVKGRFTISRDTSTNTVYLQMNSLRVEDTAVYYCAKGFNWNISVNWGQGTLVTVSS [En_Gibbs] showed no signal (0 of 6 replicates; controls 0 of 18). Variant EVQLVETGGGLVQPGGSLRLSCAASGFDLDEYGISWVRQAPGKGPEWVSVIYADGRRTFYADSVKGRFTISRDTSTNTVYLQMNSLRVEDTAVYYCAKGTNAGTFDLWGQGTLVTVSS [En_HC] gave -1.05 (6 of 6 replicates; controls 0 of 18). Variant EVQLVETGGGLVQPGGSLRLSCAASGKDLEEYGISWVRQAPGKGPEWVSVIYADGFRTAYKNQVKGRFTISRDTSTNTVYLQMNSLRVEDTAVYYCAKGSGVIDTMVWGQGTLVTVSS [En_Gibbs] showed no signal (0 of 6 replicates; controls 0 of 18). For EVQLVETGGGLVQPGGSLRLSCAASGFDLNEYGISWVRQAPGKGPEWVSVIYADGMRTFYTDSVKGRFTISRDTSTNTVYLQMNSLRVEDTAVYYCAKGEVAGTFDAWGQGTLVTVSS [En_HC], the assay gave -0.42 (6 of 6 replicates; controls 1 of 18). Variant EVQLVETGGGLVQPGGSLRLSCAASGFDLNEYGISWVRQAPGKGPEWVSVIYADGRRTFYTDSVKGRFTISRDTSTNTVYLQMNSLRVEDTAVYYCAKGQEAGTFDVWGQGTLVTVSS [En_HC] showed -0.60 (6 of 6 replicates; controls 0 of 18). With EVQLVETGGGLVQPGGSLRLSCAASGFDLDEYGISWVRQAPGKGPEWVSVIYADGMRTAYIDSVKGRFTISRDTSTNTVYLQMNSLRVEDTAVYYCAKGQNAGTFDVWGQGTLVTVSS [En_Gen] the result was -0.34 (6 of 6 replicates; controls 1 of 18). Variant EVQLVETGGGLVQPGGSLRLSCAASGFDLDEYGISWVRQAPGKGPEWVSVIYADGSRTAYTDSVKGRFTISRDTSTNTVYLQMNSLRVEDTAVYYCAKGNVAGTFDLWGQGTLVTVSS [En_Gen] gave -0.27 (6 of 6 replicates; controls 0 of 18). With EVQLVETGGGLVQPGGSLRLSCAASGFDLNEYGISWVRQAPGKGPEWVSVIYADGMRTFYADDVKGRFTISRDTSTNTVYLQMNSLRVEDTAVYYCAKGNTAGTFDVWGQGTLVTVSS [En_Gen] the result was -0.69 (6 of 6 replicates; controls 0 of 18).

For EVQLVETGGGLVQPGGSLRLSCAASGFGLDEYGISWVRQAPGKGPEWVSVIYADGSRVFYADTVKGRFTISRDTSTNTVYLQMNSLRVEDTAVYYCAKGLLGILKVVWGQGTLVTVSS [En_Gibbs], the assay gave no signal (0 of 6 replicates; controls 0 of 18). Variant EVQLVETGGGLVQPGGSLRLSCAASGFDLNEYGISWVRQAPGKGPEWVSVIYADGMRTAYSDSVKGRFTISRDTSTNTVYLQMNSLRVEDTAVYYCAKGQNAGTFDLWGQGTLVTVSS [En_Gen] gave -0.08 (6 of 6 replicates; controls 2 of 18). Variant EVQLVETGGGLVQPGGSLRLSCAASGFDLNEYGISWVRQAPGKGPEWVSVIYADGMRTAYVDSVKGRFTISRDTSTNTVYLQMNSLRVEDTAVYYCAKGETAGTFDQWGQGTLVTVSS [En_Gen] showed -0.81 (6 of 6 replicates; controls 0 of 18). For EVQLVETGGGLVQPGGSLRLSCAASGFDLNEYGISWVRQAPGKGPEWVSVIYADGVRTAYGDSVKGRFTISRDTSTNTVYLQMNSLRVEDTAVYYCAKGTNAGTFDQWGQGTLVTVSS [En_HC], the assay gave -0.45 (6 of 6 replicates; controls 0 of 18). For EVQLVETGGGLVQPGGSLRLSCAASGFNLDEYGISWVRQAPGKGPEWVSVIYADGVRTFYADSVKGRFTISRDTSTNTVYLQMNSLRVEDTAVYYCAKGQVAGTFDSWGQGTLVTVSS [En_HC], the assay gave -0.40 (6 of 6 replicates; controls 1 of 18). Variant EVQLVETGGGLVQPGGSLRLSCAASGFDLDEYGISWVRQAPGKGPEWVSVIYADGRRTFYSDSVKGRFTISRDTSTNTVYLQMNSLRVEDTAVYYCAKGQNAGTFDQWGQGTLVTVSS [En_HC] gave -0.09 (6 of 6 replicates; controls 0 of 18). Variant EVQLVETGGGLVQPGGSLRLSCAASGFDLQEYGISWVRQAPGKGPEWVSVIYADGARKSYTNSVKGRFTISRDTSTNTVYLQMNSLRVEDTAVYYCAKGVVGATMDVWGQGTLVTVSS [En_Gibbs] gave 2.40 (1 of 6 replicates; controls 0 of 18). Variant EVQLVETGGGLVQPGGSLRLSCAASGFKLDEFGISWVRQAPGKGPEWVSVIYADGHRVAVSDKVKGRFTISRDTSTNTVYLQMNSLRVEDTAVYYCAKGHNVGAFFVWGQGTLVTVSS [En_Gibbs] showed no signal (0 of 6 replicates; controls 0 of 18).

Again, the first 2 entries without any signal:

{"VH": "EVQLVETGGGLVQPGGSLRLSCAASGFNLDEYGISWVRQAPGKGPEWVSVIYADGARTAYADKVKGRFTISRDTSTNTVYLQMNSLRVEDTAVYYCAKGFNWNISVNWGQGTLVTVSS", "group": "En_Gibbs", "log10 Kd (nM), mean": "no signal", "seen in": "0/6", "control signals": "0/18"}
{"VH": "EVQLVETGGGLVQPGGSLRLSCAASGKDLEEYGISWVRQAPGKGPEWVSVIYADGFRTAYKNQVKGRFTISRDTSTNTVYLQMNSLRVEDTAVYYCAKGSGVIDTMVWGQGTLVTVSS", "group": "En_Gibbs", "log10 Kd (nM), mean": "no signal", "seen in": "0/6", "control signals": "0/18"}

Reference: Li et al. 2023, doi:10.1038/s41467-023-39022-2. File: FLAb, binding data.